According to ChEMBL document CHEMBL2074452, “Mercapturic acids (N-acetylcysteine S-conjugates) as endogenous substrates for the renal organic anion transporter-1” (Mol Pharmacol, 2001):

Legend:
Conditions in all cases: oocyte
[1] = molecular target: T1, Solute carrier family 22 member 6 (Rattus norvegicus, UniProt O35956); test: TP_TRANSPORTER: inhibition of DNP-NAC uptake (DNP-NAC: 1 uM, diBr,diF-NAC: 1000 uM) in Xenopus laevis oocytes
[2] = molecular target: T1, Solute carrier family 22 member 6; test: TP_TRANSPORTER: inhibition of DNP-NAC uptake (DNP-NAC: 1 uM, Br,Cl,diF-NAC: 1000 uM) in Xenopus laevis oocytes
[3] = molecular target: T1, Solute carrier family 22 member 6; test: TP_TRANSPORTER: inhibition of DNP-NAC uptake (DNP-NAC: 1 uM, Cl-triF-NAC: 1000 uM) in Xenopus laevis oocytes
[4] = molecular target: T1, Solute carrier family 22 member 6; test: TP_TRANSPORTER: inhibition of PAH uptake (PAH: 20 uM, Cl-triF-NAC: 1000 uM) in Xenopus laevis oocytes

## CC(=O)N[C@@H](CSC(F)(F)C(Br)Br)C(=O)O
[1]
  Activity: inhibitor [(at a rough estimate) 0 % of control]

## CC(=O)NC(CSC(F)(F)C(Cl)Br)C(=O)O (centres undefined)
[2]
  Activity: inhibitor [(at a rough estimate) 5 % of control]

## CC(=O)NC(CSC(F)(F)C(F)Cl)C(=O)O (centres undefined)
[3]
  Activity: inhibitor [(at a rough estimate) 15 % of control]
[4]
  Activity: inhibitor [(at a rough estimate) 30 % of control]
